Values of other authors, collected in paper PMC12193579, “Pro-Apoptotic Activity of 1-(4,5,6,7-Tetrabromo-1H-benzimidazol-1-yl)propan-2-one, an Intracellular Inhibitor of PIM-1 Kinase in Acute Lymphoblastic Leukemia and Breast Cancer Cells” (International Journal of Molecular Sciences, 2025).

Target: CK2
Parameters: method as in PMID 15358133
Details: cited from earlier work

**Q.** With `CN(C)c1nc2c(Br)c(Br)c(Br)c(Br)c2[nH]1` [DMAT, 2-Dimethylamino-4,5,6,7-tetrabromo-1H-benzimidazole] as the compound, how does the Ki read?
**A.** Its Ki is 40 nM.
